Results on one compound are retold here after ChEMBL document CHEMBL1133002 (J Med Chem, 2000).

Amino acid sequences for entries named in this document (tags omitted). A change or cut given only in a name is not applied to a line headed by its entry.
UniProt P15823: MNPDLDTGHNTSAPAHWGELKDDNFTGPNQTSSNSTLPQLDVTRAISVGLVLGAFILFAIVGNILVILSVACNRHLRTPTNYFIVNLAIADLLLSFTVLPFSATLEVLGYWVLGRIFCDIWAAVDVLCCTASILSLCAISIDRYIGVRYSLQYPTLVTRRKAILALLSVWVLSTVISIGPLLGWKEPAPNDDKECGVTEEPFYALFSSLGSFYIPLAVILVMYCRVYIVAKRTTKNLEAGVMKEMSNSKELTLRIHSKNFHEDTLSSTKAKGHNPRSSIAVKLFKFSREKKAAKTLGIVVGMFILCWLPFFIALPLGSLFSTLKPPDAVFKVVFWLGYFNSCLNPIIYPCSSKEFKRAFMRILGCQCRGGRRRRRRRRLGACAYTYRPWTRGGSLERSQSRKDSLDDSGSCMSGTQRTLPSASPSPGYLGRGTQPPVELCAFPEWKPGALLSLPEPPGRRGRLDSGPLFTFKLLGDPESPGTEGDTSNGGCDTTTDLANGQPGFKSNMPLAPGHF
UniProt P23944: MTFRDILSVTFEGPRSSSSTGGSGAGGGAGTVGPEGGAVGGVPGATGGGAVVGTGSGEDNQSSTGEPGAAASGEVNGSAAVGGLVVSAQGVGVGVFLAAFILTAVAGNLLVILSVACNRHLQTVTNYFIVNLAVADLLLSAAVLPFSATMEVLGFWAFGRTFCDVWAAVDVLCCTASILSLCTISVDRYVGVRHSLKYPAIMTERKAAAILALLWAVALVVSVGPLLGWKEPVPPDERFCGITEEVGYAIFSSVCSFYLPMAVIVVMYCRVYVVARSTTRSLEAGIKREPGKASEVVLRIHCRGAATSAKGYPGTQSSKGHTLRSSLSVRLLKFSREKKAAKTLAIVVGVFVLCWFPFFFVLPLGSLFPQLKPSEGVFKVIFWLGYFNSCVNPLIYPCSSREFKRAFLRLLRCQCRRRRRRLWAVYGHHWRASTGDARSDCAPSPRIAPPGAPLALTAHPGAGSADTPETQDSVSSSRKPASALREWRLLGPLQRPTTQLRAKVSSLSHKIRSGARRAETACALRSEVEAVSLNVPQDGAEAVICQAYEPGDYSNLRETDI
UniProt P43140: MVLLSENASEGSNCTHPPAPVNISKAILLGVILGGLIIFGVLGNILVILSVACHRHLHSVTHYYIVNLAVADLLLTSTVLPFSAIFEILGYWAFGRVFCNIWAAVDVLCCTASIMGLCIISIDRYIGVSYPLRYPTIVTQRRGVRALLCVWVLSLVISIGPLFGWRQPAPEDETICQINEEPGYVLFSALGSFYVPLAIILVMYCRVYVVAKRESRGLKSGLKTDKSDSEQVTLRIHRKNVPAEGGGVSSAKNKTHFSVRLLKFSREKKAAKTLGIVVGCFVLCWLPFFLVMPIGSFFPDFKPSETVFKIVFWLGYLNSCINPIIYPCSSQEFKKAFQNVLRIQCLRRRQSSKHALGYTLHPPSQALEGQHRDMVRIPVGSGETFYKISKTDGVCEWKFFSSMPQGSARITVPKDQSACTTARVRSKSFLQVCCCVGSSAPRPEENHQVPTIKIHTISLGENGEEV

Usually Ki stands for a measure of affinity in units of concentration, obtained from inhibition or displacement. A higher Ki goes with a looser hold on the target.

For the experiment, the target named is Adrenergic receptor alpha-1 (Rattus norvegicus, UniProt P15823+P23944+P43140). Kind of experiment: in vitro alpha-1 adrenergic receptor binding assay from rats, using RX 821002 as the displaceable ligand. Format: protein assay.

`Clc1cccc(Cl)c1NC1=NCCN1` [CLONIDINE] had a Ki of 116 nM.
